Among the data in PubChem BioAssay AID504634 (The Scripps Research Institute Molecular Screening Center, 2011) are inhibition values, retold here.

The chains behind the UniProt entries cited, without tags or fusion partners.
UniProt P47898, whole entry, looked up: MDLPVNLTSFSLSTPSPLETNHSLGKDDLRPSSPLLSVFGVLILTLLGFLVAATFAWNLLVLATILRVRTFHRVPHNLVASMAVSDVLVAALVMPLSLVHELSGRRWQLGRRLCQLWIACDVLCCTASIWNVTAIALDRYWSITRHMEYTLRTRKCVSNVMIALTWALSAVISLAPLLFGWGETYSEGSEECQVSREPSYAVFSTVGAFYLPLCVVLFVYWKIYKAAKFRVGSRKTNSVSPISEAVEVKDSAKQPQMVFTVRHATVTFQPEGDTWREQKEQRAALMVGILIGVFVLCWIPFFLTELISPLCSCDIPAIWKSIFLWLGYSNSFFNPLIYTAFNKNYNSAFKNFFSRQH

Only a part is listed here, and it is no random draw. Calls of active or inactive are those of the source. No stated cut-off is given here; in the data, active means inhibition mostly above about 23% (no sharp cut-off); inactive means mostly below about 18%.

The inhibition is the relative decrease from the control value, in per cent.

The assay deals with 5-hydroxytryptamine receptor 5A (Homo sapiens) (UniProt P47898). Kind of assay: HTR5A inverse agonists in luminescence cell assay, primary screen, counter-screen for OPRM1-OPRD1 heterodimer inverse agonist project, full-deck HTS (AID 504634).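 Further: 0% = cells with DMSO and 100% = no-cell wells with DMSO.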 Particulars: HTR5A cell line, inverse agonism, at 9.3 µM, stronger effect = higher value. (A counterscreen serves to expose hits that act by an unwanted route or on another target.)
As for `CCN(CC)C(=O)CSc1nc2ccccc2n1CC(=O)N1CCN(c2ccccc2OC)CC1`, the inhibition was inactive: -3.31%.
`c1nnnn1CCn1cnnn1`: the inhibition was inactive: 6.44%.
Take `CCC(=O)Nc1cccc(C(=O)/C=C/c2ccccc2)c1`: the inhibition was inactive: -34.5%.
The value for `CCOc1ccc(CCNC(=O)Cn2c(-c3nonc3N)nc3ccccc32)cc1OCC` was inactive: -5.75%; that for `CSc1nc2ccccc2n1CC(=O)Nc1cc(C(F)(F)F)ccc1N1CCOCC1` was inactive: 9.72%; that for `CCN(CC)CCn1c(NCc2nc3ccccc3n2Cc2ccccc2)nc2ccccc21` was inactive: -13.5%.
The value for `O=C(CCCCCNC(=O)N1CCn2c1nc1ccccc12)NCc1ccccc1` was inactive: -8.06%; that for `CCNC(=O)Cn1cnc2c1c(=O)n(C)c(=O)n2C` was inactive: 11.5%; that for `CCCC(=O)Nc1ccc2c(c1)nc1n2CCN(C2CCCCC2)C1` was inactive: 4.68%.
The value for `O=C(Cn1c(CO)nc2ccccc21)Nc1cc(C(F)(F)F)ccc1N1CCOCC1` was inactive: 1.51%.
As for `CCN(C(=O)Cn1c(Cl)nc2c1c(=O)n(C)c(=O)n2C)C1CCCCC1`, the inhibition was inactive: -0.44%.
In the case of `Cc1ccc(NC(=O)Cn2c(/C=C/c3ccccc3)nc3ccccc32)cc1C`, the inhibition is inactive: -12.1%.
In the case of `CN(C)Cc1ccc(-c2nc3cccc4c3n2CCNC4=O)cc1`, the inhibition was inactive: -36.2%.
As for `COc1ccc(-c2ccc3c(c2)[C@@H]2C[C@H](N(C)C(=O)C(C)(C)C)[C@H]([C@H](C)O)C(=O)N2CC3)cc1`, the inhibition is inactive: -1.49%.
The value for `Cc1ccc(-c2csc(N3CCC[C@@H]3C(=O)NCCn3c(-c4ccncc4)nc4ccccc43)n2)cc1` was inactive: -51.9%.
The value for `O=C(Cn1cnc2ccccc21)N/N=C/c1ccccc1` was inactive: 7.08%; that for `CCOC(=O)Cn1c(=O)oc2cc(S(=O)(=O)N3CCn4c3nc3ccccc34)ccc21` was inactive: -13.7%; that for `CC(C)[C@H](NC(=O)N1CCn2c1nc1ccccc12)C(=O)N[C@@H](Cc1ccccc1)C(=O)O` was inactive: 21.3%.
The value for `CCc1ccc(NC(=O)Cn2cnc3c(=O)n(C)c(=O)n(C)c32)cc1` was inactive: 2.57%.
On to `CCS(=O)(=O)c1nc2ccccc2n1CC(=O)N1CCCCC1`, for which the inhibition is inactive: 9.76%.
The value for `CCC(C(=O)NC1CCCCC1)n1c(SCc2cccc(F)c2)nc2ccncc21` (configuration not stated) was inactive: -2.92%; that for `CC(/C=N/NC(=O)Cn1cnc2c1c(=O)n(C)c(=O)n2C)=C\c1ccccc1` was inactive: -13.2%.
The value for `CC(C)c1ccccc1NC(=O)Cn1c(-c2ccccc2Cl)nc2ccccc21` was inactive: 8.22%; that for `CC(C)C[C@H](NC(=O)N1CCn2c1nc1ccccc12)C(=O)N[C@H](Cc1ccccc1)C(=O)O` was inactive: 1.77%; that for `c1ccc(CNc2nc3ccccc3n2CCN2CCOCC2)nc1` was inactive: 1.2%.
Regarding `Cn1c(=O)n(CC(=O)N2CCOCC2)c2ccccc21`, the inhibition is inactive: 5.64%.
The value for `O=P(Nc1nccs1)(c1ccccc1)c1ccccc1` was inactive: 3.88%; that for `CC(C)C(=O)NC(Sc1ccccc1)C(Cl)(Cl)Cl` (configuration not stated) was inactive: 14.2%.
The value for `COc1ccc(OCC(O)Cn2c(=N)n(CCN3CCCCC3)c3ccccc32)cc1` (configuration not stated) was inactive: -18.6%; that for `C[C@@H](NC(=O)Cn1cnc2c(OCc3ccccc3)ncnc21)c1cccc2ccccc12` was inactive: 7.23%.
The value for `N#CCCN1CCn2c1nc1ccccc12` was inactive: -1.97%; that for `O=C(Cn1cnc2c(OCc3ccccc3)ncnc21)NCC1CCCO1` (configuration not stated) was inactive: -3.61%.
As to `Cn1c(=O)c2ncn(CC(=O)N/N=C/c3ccco3)c2n(C)c1=O`, the inhibition was inactive: 15.3%.
Turning to `CC1CCCC(C)N1C(=O)Cn1c(SCC(=O)Nc2ccc3c(c2)OCO3)nc2ccccc21` (configuration not stated), the inhibition was inactive: 3.37%.
The value for `c1ccc2c(c1)nc1n2CCN1CCN1CCCC1` was inactive: -8.84%; that for `Cn1c(=O)c2c(ncn2CC(=O)N2CCN(S(=O)(=O)c3ccccc3)CC2)n(C)c1=O` was inactive: -12.9%.
In the case of `CCOCCn1c(=O)c2c(nc3n2CCN3c2ccc(C)cc2)n(C)c1=O`, the inhibition was inactive: -14.4%.
Consider `Cc1ccccc1Oc1ccc2c(c1)[C@@H]1C[C@H](N(C)C(=O)NC3CCCCC3)[C@H]([C@H](C)O)C(=O)N1CC2`, for which the inhibition is inactive: -0.23%.
The value for `CCN(CC)CCn1c(=N)n(CC(O)c2ccc(OC)c(OC)c2)c2ccccc21` (configuration not stated) was inactive: -11.2%; that for `O=C(c1cccs1)N1CCn2c1nc1ccccc12` was inactive: 9.36%; that for `CC(C)C[C@H](NC(=O)N1CCn2c1nc1ccccc12)C(=O)NC1CC1` was inactive: -15.6%.
The value for `COc1ccc(NC(=O)CN(C)C(=O)Cn2cnc3c2c(=O)n(C)c(=O)n3C)cc1` was inactive: 18.6%; that for `Cn1c(=O)c2c(nc(CN3CCN(Cc4ccccc4)CC3)n2CCN2CCOCC2)n(C)c1=O` was inactive: -28.7%.
The value for `CC(NC(=O)Cn1c(NCCO)nc2ccccc21)c1ccccc1` (configuration not stated) was inactive: 0.36%; that for `COC(=O)[C@H](Cc1ccccc1)NC(=O)Cn1cnc2c(NCc3ccccc3)ncnc21` was inactive: -2.39%.
As for `CCC(C)N(C(=O)Cn1c(Cl)nc2c1c(=O)n(C)c(=O)n2C)C1CCS(=O)(=O)C1` (configuration not stated), the inhibition is inactive: 1.38%.
Take `Brc1cccc(CNc2nc3ccccc3n2CCN2CCCCC2)c1`: the inhibition is inactive: 17.6%.
Turning to `O=C(Cn1cnc2ccccc21)Nc1ccccc1-c1ccccc1`, the inhibition was inactive: -30.8%.
`COc1ccc(OC)c(CNc2nc3ccccc3n2CCN2CCCCC2)c1`: the inhibition is inactive: 2.98%.
The value for `Cc1ccc2c(c1)C1CN(C)CCC1N2S(=O)(=O)c1ccc(C(C)C)cc1` (configuration not stated) was inactive: 12%; that for `CCSc1nc2ccccc2n1CC(N)=O` was inactive: 23%.
The value for `O=C(Cn1cnc2ccccc21)N/N=C/c1ccco1` was inactive: -1.07%.
In the case of `COCCN1CCn2c(nc3cc(NS(C)(=O)=O)ccc32)C1`, the inhibition was inactive: -21.2%.
The value for `COc1ccc(CNc2nc3ccccc3n2CCN2CCCCC2)cc1` was inactive: -5.16%; that for `Cc1cccc(OCC(O)Cn2c(=N)n(CCN3CCCCC3)c3ccccc32)c1` (configuration not stated) was inactive: -17.5%.
The value for `Cn1c(=O)[nH]c(=O)c2c1nc(N1CCCCCC1)n2CC(N)=O` was inactive: 0.98%; that for `Nc1nonc1-c1nc2ccccc2n1CC(=O)N/N=C/c1ccc(-c2ccccc2C(=O)O)o1` was inactive: 5.19%.
